Our source for the cytotoxicity values is PubChem BioAssay AID430 (Sanford-Burnham Center for Chemical Genomics, 2006).

This is a selection; strong and weak results do not stand in their true shares. Results with a measured potency or affinity are listed apart. Activity calls are given as the source filed them. Rule as the data show it: active = cytotoxicity above about 50%; inactive = the rest.

The assay can be described thus: cytotoxicity in HPDE-C7 cells, cell-based, fluorescence, HTS (AID 430).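 Also: cells exposed to compound for 48 hours before viability readout; 0% = vehicle and 100% = reference cytotoxic drug.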 As to conditions: HPDE-C7 pancreatic duct cells viability, at 10 µM, hits give high values.
As for `N#CC1(Nc2ccccc2)CCN(CCc2ccccc2)CC1`, the cytotoxicity is inactive: -5.9%.
Consider `COc1ccc(NC2CCN(CCc3ccccc3)CC2)c(OC)c1`, for which the cytotoxicity is inactive: 22.1%.
The same measure for `O=C(OC1CN2CCC1CC2)C1c2ccccc2Oc2ccccc21` (stereo unspecified): inactive: 3.9%; for `CCC(CO)(C(=O)OC1CN2CCC1CC2)c1ccccc1` (stereo unspecified): inactive: -7%; for `CCOc1ncccc1C(=O)NCC1(N2CCOCC2)CCCCC1`: inactive: -3.4%.
On to `Fc1ccccc1NC1CCN(Cc2ccccc2)CC1`, for which the cytotoxicity is inactive: 1.9%.
